In PubChem BioAssay AID435000 (NMMLSC, 2010):
The entries are a selection whose mix differs from that of the whole data set. Some tests of the compounds listed are not included; inactive here does not mean inactive elsewhere. The source made the active and inactive calls.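 How the source made its calls: active means fluorescence response below 15%; inactive means the rest.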

Assay: yeast superoxide dye artefact check – S. cerevisiae BY4741, flow cytometry, artefact control for yeast caloric restriction mimetic project (AID 435000);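 further: percent of the mean fluorescence averaged over all compound wells on the plate; lower means stronger quenching of DHE signal or ROS scavenging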
Settings: S. cerevisiae BY4741, DHE fluorescence, at 10 µM, stronger effect = lower value

With `COc1cc(C(=O)NCC2(N(C)C)CCCCC2)c([N+](=O)[O-])cc1OC` the fluorescence response was inactive: 97%.
